Reference: article PMC10589655 (Proceedings of the National Academy of Sciences of the …, 2023)

Biological target: T1, R7 (Peptoclostridium litorale, UniProt A0A069RI07)
T1 sequence (A0A069RI07 38-318 limits assumed): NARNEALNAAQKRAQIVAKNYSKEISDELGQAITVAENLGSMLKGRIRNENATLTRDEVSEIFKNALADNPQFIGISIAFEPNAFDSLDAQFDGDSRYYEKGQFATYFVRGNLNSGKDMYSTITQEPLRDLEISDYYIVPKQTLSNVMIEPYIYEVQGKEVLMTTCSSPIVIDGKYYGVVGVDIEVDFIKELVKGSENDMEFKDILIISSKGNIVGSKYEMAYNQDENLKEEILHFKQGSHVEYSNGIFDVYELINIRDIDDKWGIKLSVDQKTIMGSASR
Assay: ITC
Type: binding

`CN(C)C` [Trimethylamine] showed a Kd of 12.6 ± 1 µM.
